## Yeast mating assay B: variants of the scFv Ab-14

The target is the same throughout: PDVDLGDISGINAS, from the HR2 region of SARS-CoV-2 spike.

The variants keep the heavy chain, the linker and the frameworks of Ab-14 (scFv order VH, a (GGGGS)3 linker, VL).
VH: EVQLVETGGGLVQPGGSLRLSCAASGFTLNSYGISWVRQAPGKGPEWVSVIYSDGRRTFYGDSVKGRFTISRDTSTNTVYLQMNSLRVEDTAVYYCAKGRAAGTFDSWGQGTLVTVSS
VL: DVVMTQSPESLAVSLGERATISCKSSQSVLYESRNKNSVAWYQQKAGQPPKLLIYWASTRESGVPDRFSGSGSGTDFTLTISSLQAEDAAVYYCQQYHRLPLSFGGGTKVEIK

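The parent was found by panning a naive human phage display library on the peptide. This is the validation round: designs drawn from the data on random variants, tested in the same kind of assay. Group labels follow the data file (Ctrl: baseline library sampled from a position-specific scoring matrix, with some repeated check sequences; En: ensemble of fine-tuned language models; GP: Gaussian process model; HC: hill climbing; Gen: genetic algorithm; Gibbs: Gibbs sampling; a sequence that several methods proposed may carry one label only). Affinity was read by AlphaSeq, a pooled yeast mating assay with surface-displayed partners. Binding brings cells together so that they mate, and sequencing counts the barcode pairs among the diploids. The ratio of observed to expected reads was calibrated, replicate by replicate, on BCL2-family standards whose Kd was known from biolayer interferometry. Each pool was mated in six replicate cultures.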

Variants are written as CDR1, CDR2 and CDR3 of the light chain (limits as in the source). Parent: KSSQSVLYESRNKNSVA, WASTRES, QQYHRLPLS. Scale: log10 of Kd in nM, estimated from mating counts; low values are strong binders. The mean shown is taken over the replicates in which the pair was detected. Where no diploid with the target was found in any replicate, the entry reads "no signal": below detection, most likely a poor binder, though not proof of it. Order: sorted from the lowest average up, undetected variants last. Nonspecific signal, from three strains lacking the peptide, appeared in 4% of pairings of all light chain designs, centred on 2.64 (5% of these signals below 1.59); values are not corrected for it. For each scFv, signals with the empty controls are counted beside the result.

CDR-L1	CDR-L2	CDR-L3	group	mean, log10 nM	seen in	signal with controls
KLMQSMLYESRNKNSVA	NASQRES	QQYHRLPLS	GP_Gen	-0.58	6/6	0/18
KLQQSELYESRNKNSVA	NASTREQ	QQYHRLPLS	GP_Gen	-0.55	6/6	0/18
KVEQSVLYEDRNKNSVA	NASQRES	QQYHRLPLS	GP_Gen	-0.44	6/6	2/18
KLSQSWLYESRNKNSVA	NASTRLS	QDYHRLPLS	GP_Gen	-0.30	6/6	3/18
KLSQSVLYESRNFNSVA	NASTREV	QQYHRLPLS	GP_Gen	-0.24	6/6	0/18
KLMQMMPYESRNANSVA	NASTREE	QQYHRLPLS	GP_Gibbs	-0.18	6/6	1/18
KVSQSHLYESRNKNSVA	NASTRES	QQYHRLPLS	GP_Gen	-0.18	6/6	2/18
KLQQSFLYESRNKNSVA	NASTRMS	QQYHRLPLS	GP_Gen	-0.15	6/6	2/18
KMSQSVDFESRNKNSVA	DASTRES	QQYHRLPLS	GP_HC	-0.12	6/6	1/18
KSSISYLGESRNKNSVA	AASTRES	QQYHRLPLS	GP_HC	-0.10	6/6	1/18
KMSQSELYESRNKNSVA	NASQRLS	QQYHRLPLS	GP_Gen	0.01	6/6	0/18
KSSISALEESRNKNSVA	EASTRES	QQYHRLPLS	GP_HC	0.02	6/6	2/18
KVSQSHLYESRNKNAVA	DASTRES	QQYHRLPLS	GP_Gen	0.02	6/6	1/18
KLSQSELYESRNCNSVA	GASTRES	QQYHRLPLS	Ctrl	0.02	6/6	2/18
KVYGAINFQSSAKSNIA	EESMRTK	QQYARLPLS	En_Gen	0.15	6/6	1/18
QIYQAMHTLMQQKNNVA	DVTERNN	QQYFRLPLS	En_Gen	0.18	6/6	1/18
KMSQSVEQLDRNWNNVA	YASQREM	QQYHRLPLS	GP_Gibbs	0.26	6/6	1/18
KVQQSWLYESRNKNSVA	NASTRLS	QQYHRLPLS	GP_Gen	0.39	6/6	1/18
KLDQDDLYESRNCNSVA	QASTREQ	QQYHRLPLS	GP_Gibbs	0.41	6/6	0/18
HMKDEPGLGPQTYHSVA	HASILEP	QQYYRLPLM	En_Gibbs	0.44	6/6	1/18
KMSQSWLGQSWNKNSVA	NASQRES	QQYHRLPLS	GP_Gibbs	0.49	6/6	5/18
KVPQSNLYEARNANSVA	NASTRLS	QQYHRLPLS	GP_Gibbs	0.51	6/6	0/18
RLLYLDLAQTGKLNSVA	DATITQQ	QQYHQLPLM	En_Gibbs	0.55	6/6	1/18
KLSMLTEMEHVNRNSVA	ELVTRMR	QQYNRLPLS	En_Gen	0.55	6/6	1/18
KFSQSVLYESRNKNSVA	WASTRES	QQYMSLPLS	Ctrl	0.59	6/6	0/18
NLKEMEGTNQTKHGNIA	SVDQRMT	QQYFRLPLA	En_Gibbs	0.61	6/6	0/18
KSSQWVQYESRNKNSVA	HASTRES	QSYHELPLS	Ctrl	0.64	6/6	0/18
IISQVDGYLMHNTNSIA	DQQTRGS	QQYDRLPLS	En_HC	0.72	6/6	0/18
KIGMTLNTLMHQKNNVA	DLVNREN	QQYFRLPLS	En_Gen	0.76	6/6	0/18

Further variants, results first:

mean, log10 nM	seen in	signal with controls	CDR-L1	CDR-L2	CDR-L3	group
0.81	6/6	0/18	SLAMLLDQQYAKGANIA	NAAELVV	QQYYRLPLT	En_Gibbs
0.81	6/6	1/18	MMSQVTGQGYRHRNNVA	QTSTREP	QQYDRLPLI	En_Gen
0.87	6/6	1/18	QMGYALFHEDAKKKSIA	ENDVRVY	QQYAKLPLT	En_Gibbs
0.97	6/6	0/18	KCSQSVPNESRNKNSVA	WASTRSS	QQYHRLPFS	Ctrl
1.05	6/6	1/18	KLTMITGLEKVIGNNVA	EMETREK	QQYNRLPLS	En_Gen
1.13	6/6	2/18	TLMHHQGRYDVWKESIA	EASIRAS	QQYQRLPLA	En_Gibbs
1.46	6/6	0/18	IVSQLMLWGMHHKNSIA	EAQTKLN	QQYDRLPLF	En_Gen
1.67	6/6	0/18	KSSISYLYESENKNSVA	AASLRES	QQYHRLPLS	GP_HC
1.71	5/6	1/18	KSSQSVLYESRNLNSVA	WAKTRES	QQYHRLPLS	Ctrl
1.75	5/6	0/18	MISQVLNTLTRNGNNVA	DLQEREK	QQYFRLPLS	En_Gen
1.79	6/6	4/18	NVGQSMDGETRNKNSVA	HQSTRED	QHYHRLPLS	En_HC
1.82	6/6	1/18	TLMHHQDRYDVWKESIA	EASIRAS	QQYQRLPLA	En_Gibbs
1.82	1/6	0/18	MIYGMDRELGRAANSIA	DNVTRYN	QQYNRLPLD	En_Gen
1.94	5/6	0/18	KSSSSVLYESRPKNSVA	MASTRES	QQYHRLPLS	Ctrl
1.99	5/6	0/18	SISMLLNFELKIGNNVA	QMETRVN	QQYDRLPLS	En_Gen
2.10	5/6	2/18	TIGAQLMYGMRNRSNVA	EVSERLN	QQYDRLPLF	En_Gen
2.12	5/6	0/18	KVSEFMRGLMMRKDSIA	DNETRSN	QQYDRLPLS	En_Gen
2.16	3/6	2/18	KVSEFMRGLIQRSDSIA	DNETRGA	QQYDRLPLS	En_Gen
2.26	6/6	2/18	KLPLATMQENVSKNNVA	ELSTRGS	QQYHRLPLS	En_HC
2.26	1/6	0/18	KQSQSLLYESRNKNSVA	KASTRES	NQYHRLPLS	Ctrl
2.27	4/6	0/18	TISNSAQQESHNKNSVA	DLSVRGS	QQYDRLPLS	En_HC
2.37	4/6	0/18	KSSQSVLYESGEKNSVA	WASTRES	QQYHRLPLS	Ctrl
2.41	2/6	0/18	TIGGTLMYGMRNRSNVA	EVSERLN	QQYDRLPLA	En_Gen
2.88	3/6	1/18	KSSQSVLWESRNKNSVA	WASTRES	QQYHRLPLS	Ctrl
3.01	2/6	3/18	KLTAAQNDYGQNRSAIA	EEVNSLQ	QQYHHLPLS	En_Gibbs
no signal	0/6	0/18	KSSQSKLYESRNCNSVA	QASTRES	QTYHHLPLS	Ctrl
no signal	0/6	0/18	KIGQGVLYESRNKNSVA	GASTRES	QQYHRLPLH	GP_HC
no signal	0/6	1/18	KSSQSVLYESRNKNSVA	WASTRES	QWYHRLPLS	Ctrl
no signal	0/6	0/18	IVSQLMMWGLHAKNSIA	EAVTRLN	QQYDRLPLF	En_Gen

4 of these entries, quoted again:

CDR-L1	CDR-L2	CDR-L3	group	mean, log10 nM	seen in	signal with controls
KMSQSVEQLDRNWNNVA	YASQREM	QQYHRLPLS	GP_Gibbs	0.26	6/6	1/18
RLLYLDLAQTGKLNSVA	DATITQQ	QQYHQLPLM	En_Gibbs	0.55	6/6	1/18
TLMHHQDRYDVWKESIA	EASIRAS	QQYQRLPLA	En_Gibbs	1.82	6/6	1/18
IISQVDGYLMHNTNSIA	DQQTRGS	QQYDRLPLS	En_HC	0.72	6/6	0/18

In the paper, a design with two or fewer of six values counts as a poor binder. Values of this round are not directly comparable with the first-round values of the same sequences.

Source: Li et al. 2023 (doi:10.1038/s41467-023-39022-2), MIT Lincoln Laboratory and A-Alpha Bio; data file from the FLAb repository.